Measurements published in EP1903056A2, “HLA-A1, -A2 -A3, -A24, -B7, and -B44 tumor associated antigen peptides and compositions” (priority 2002, dated 2004).

Experiments:
[1] = molecular target: B*4002 (B61) (Homo sapiens, UniProt P01889, A65T/A93T/A95T/D138N/D201E/D98Y/E176V/E204Q/E69K/K202T/N87E/Q56L/Q94N/R180L/S48T/Y33H/Y91S); experiment: B44 supertype peptide binding, B*4002; settings: read-out: B* 4002
[2] = molecular target: B*4402 (Homo sapiens, UniProt P01889, A223V/A65T/A93T/A95T/D201E/D98Y/E176V/E187L/E204Q/E69K/G107R/H137Y/K202T/L105A/L119I/N104T/N87E/Q56L/Q94N/R106L/R155S/R180D/S101N/S121R/S35A/S48T/T118I/V36M/W191S/Y140D/Y91S); experiment: B44 supertype peptide binding, B*4402; settings: read-out: B* 4402
[3] = molecular target: B*4403 (Homo sapiens, UniProt P01889, A223V/A65T/A93T/A95T/D201E/D98Y/E176V/E187L/E204Q/E69K/G107R/H137Y/K202T/L105A/L119I/N104T/N87E/Q56L/Q94N/R106L/R155S/R180L/S101N/S121R/S35A/S48T/T118I/V36M/W191S/Y140D/Y91S); experiment: B44 supertype peptide binding, B*4403; settings: read-out: B* 4403
[4] = molecular target: B*4501 (Homo sapiens, UniProt P01889, A329T/A65T/A93T/A95T/C349S/D138N/D201E/D98Y/E176V/E187L/E204Q/E69K/H137Y/K202T/L119W/N87E/Q56L/Q94N/R155S/R180D/S121R/S35A/S48T/V127L/V306I/V36M/W191S/Y140L/Y33H/Y91S); experiment: B44 supertype peptide binding, B*4501
[5] = tested on: B44 supertype (B*1801, B*4001, B*4002, B*4402, B*4403, B*4501); experiment: B44 supertype cross-binding (degeneracy, number of alleles bound); design: species or system human; settings: number of the six B44 alleles bound
[6] = tested on: B44 supertype (B*1801, B*4001, B*4002, B*4402, B*4403, B*4501); experiment: B44 supertype cross-binding (degeneracy, alleles bound); design: species or system human; settings: number of the six B44 supertype alleles bound
[7] = molecular target: B*1801 (Homo sapiens, UniProt P01889, A329T/A93T/A95T/C349S/D201E/D54G/D98Y/E176V/E187T/E204Q/E69T/K202T/Q94N/R155S/R180L/S121R/V306I/Y140S/Y195H/Y33H/Y91S); experiment: B44 supertype peptide binding, B*1801
[8] = molecular target: B*4001(B60) (Homo sapiens, UniProt P01889, A65T/A93T/A95T/D138N/D98Y/E176V/E69K/N87E/Q56L/Q94N/R180L/S121R/S35A/S48T/T167S/V36M/W171L/Y33H/Y91S); experiment: B44 supertype peptide binding, B*4001; settings: read-out: B* 4001
[9] = Table 29: MAGE2-derived B44 peptides
[10] = Table 29: MAGE2-derived B44 peptides, read-out: B* 4501
[11] = Table 28: p53-derived B44 peptides

| pIC50 [2, 9] | Structure (SMILES) | pIC50 [1, 9] | pIC50 [3, 9] | pIC50 [4, 10] | Degeneracy [5, 9] | other results |
| --- | --- | --- | --- | --- | --- | --- |
| – | CC[C@H](C)[C@H](N)C(=O)N[C@@H](CCC(=O)O)C(=O)N[C@@H](CO)C(=O)N[C@H](C(=O)N1CCC[C@H]1C(=O)N[C@@H](Cc1ccccc1)C(=O)N[C@@H](CC(N)=O)C(=O)N[C@H](C(=O)N[C@@H](C)C(=O)N[C@@H](CCC(=O)O)C(=O)NCC(=O)O)C(C)C)[C@@H](C)O [compound 370] | – | – | – | – | Degeneracy [6]: 5 |
| – | CC[C@H](C)[C@H](NC(=O)CNC(=O)[C@H](CS)NC(=O)[C@H](CCC(=O)O)NC(=O)[C@@H](N)Cc1ccc(O)cc1)C(=O)N[C@@H](CCC(N)=O)C(=O)N[C@@H](CC(N)=O)C(=O)N[C@@H](CCC(=O)O)C(=O)N[C@@H](CC(C)C)C(=O)N[C@@H](CO)C(=O)N[C@H](C(=O)O)C(C)C [compound 372] | – | – | – | – | Degeneracy [6]: 5 |
| – | CC[C@H](C)[C@H](NC(=O)[C@H](CCC(=O)O)NC(=O)[C@@H](N)CCCNC(=N)N)C(=O)N[C@H](C(=O)N[C@@H](Cc1ccc(O)cc1)C(=O)N1CCC[C@H]1C(=O)N[C@@H](CC(N)=O)C(=O)N[C@@H](C)C(=O)N[C@@H](CO)C(=O)N[C@@H](CC(C)C)C(=O)N[C@@H](CC(C)C)C(=O)O)[C@@H](C)CC [compound 378] | – | – | – | – | Degeneracy [6]: 4 |
| – | CC[C@H](C)[C@H](NC(=O)[C@H](CC(N)=O)NC(=O)[C@@H]1CCCN1C(=O)[C@@H](NC(=O)[C@H](Cc1ccccc1)NC(=O)[C@H](CC(C)C)NC(=O)[C@H](CCC(=O)O)NC(=O)[C@@H](N)CCC(N)=O)[C@@H](C)CC)C(=O)N[C@H](C(=O)O)[C@@H](C)O [compound 380] | – | – | – | – | Degeneracy [6]: 4 |
| – | CC(C)C[C@H](NC(=O)[C@H](CCC(=O)O)NC(=O)[C@@H](N)CC(N)=O)C(=O)N[C@@H](CO)C(=O)N[C@H](C(=O)N[C@@H](CC(=O)O)C(=O)N[C@@H](Cc1c[nH]cn1)C(=O)N[C@@H](CO)C(=O)N[C@@H](CC(=O)O)C(=O)N1CCC[C@H]1C(=O)N[C@H](C(=O)O)C(C)C)C(C)C [compound 391] | – | – | – | – | Degeneracy [6]: 3 |
| – | CC(C)C[C@H](NC(=O)[C@H](CCC(=O)O)NC(=O)[C@H](CC(C)C)NC(=O)[C@H](C)NC(=O)[C@H](CCC(=O)O)NC(=O)[C@H](CC(N)=O)NC(=O)[C@H](CC(C)C)NC(=O)[C@H](CCC(=O)O)NC(=O)[C@@H](N)CCCNC(=N)N)C(=O)O [compound 608] | – | – | – | – | pIC50 [7, 11]: 5.52; pIC50 [8, 11]: 7.82; pIC50 [1, 11]: 7.52; pIC50 [3, 11]: 8.96; Degeneracy [5, 11]: 4 |
| – | CC(C)C[C@H](NC(=O)[C@@H]1CCCN1C(=O)[C@@H]1CCCN1C(=O)[C@H](CCC(=O)O)NC(=O)[C@@H](N)C(C)C)C(=O)N[C@@H](CO)C(=O)N[C@@H](CCC(N)=O)C(=O)N[C@@H](CCC(=O)O)C(=O)N[C@H](C(=O)O)[C@@H](C)O [compound 622] | – | – | – | – | pIC50 [8, 11]: 4.77; pIC50 [1, 11]: < 5.00; pIC50 [2, 11]: 5.50; pIC50 [3, 11]: 6.63; pIC50 ([4]; Table 28: p53-derived B44 peptides, read-out: B* 4501): < 5.00; Degeneracy [5, 11]: 1 |
| – | CC(C)C[C@H](NC(=O)[C@H](C)NC(=O)[C@H](CCC(=O)O)NC(=O)[C@@H](N)CC(N)=O)C(=O)N[C@@H](CCC(=O)O)C(=O)N[C@@H](CC(C)C)C(=O)N[C@@H](CCCCN)C(=O)N[C@@H](CC(=O)O)C(=O)N[C@@H](C)C(=O)O [compound 635] | – | – | – | – | pIC50 [8, 11]: 5.41; pIC50 [1, 11]: 5.18; pIC50 [2, 11]: 5.37; pIC50 [3, 11]: 5.80; Degeneracy [5, 11]: 1 |
| – | CC(C)[C@H](NC(=O)[C@H](CO)NC(=O)[C@@H]1CCCN1C(=O)[C@H](CC(=O)O)NC(=O)[C@H](CO)NC(=O)[C@H](CCC(N)=O)NC(=O)[C@@H]1CCCN1C(=O)[C@H](CCC(=O)O)NC(=O)[C@@H](N)CCC(=O)O)C(=O)O [compound 637] | – | – | – | – | pIC50 [7, 11]: 5.02; pIC50 [8, 11]: < 5.00; pIC50 [1, 11]: < 5.00; pIC50 [2, 11]: 5.22; pIC50 [3, 11]: 5.82; pIC50 [4]: 5.79; Degeneracy [5, 11]: 0 |
| – | CC(C)C[C@H](NC(=O)[C@H](CC(C)C)NC(=O)[C@H](Cc1ccccc1)NC(=O)[C@H](Cc1c[nH]cn1)NC(=O)[C@@H](NC(=O)[C@H](CC(C)C)NC(=O)[C@H](CCC(=O)O)NC(=O)[C@@H](N)C(C)C)C(C)C)C(=O)O [compound 671] | 7.51 | 8.92 | 5.61 | 4 | pIC50 [7, 9]: 8.30 |
| < 5.00 | CC(C)C[C@H](NC(=O)CNC(=O)[C@H](CCC(=O)O)NC(=O)[C@H](CCC(=O)O)NC(=O)[C@@H]1CCCN1)C(=O)N[C@@H](CCC(=O)O)C(=O)N[C@@H](C)C(=O)N[C@@H](CCCNC(=N)N)C(=O)NCC(=O)O [compound 705] | < 5.00 | 5.68 | 5.71 | 1 | pIC50 [8, 9]: 6.53 |
| < 5.00 | CC(C)C[C@H](NC(=O)CNC(=O)[C@H](CCC(=O)O)NC(=O)[C@H](CCC(=O)O)NC(=O)[C@@H]1CCCN1)C(=O)N[C@@H](CCC(=O)O)C(=O)N[C@@H](C)C(=O)N[C@@H](CCCNC(=N)N)C(=O)NCC(=O)N[C@@H](CCC(=O)O)C(=O)N[C@@H](C)C(=O)O [compound 712] | 4.73 | 6.02 | 5.50 | 0 | pIC50 [7, 9]: 4.82; pIC50 [8, 9]: < 5.00 |
| 5.60 | CC(C)C[C@H](NC(=O)CNC(=O)[C@H](CC(C)C)NC(=O)[C@H](C)NC(=O)[C@H](CCC(=O)O)NC(=O)CNC(=O)[C@H](CCCNC(=N)N)NC(=O)[C@H](C)NC(=O)[C@H](CCC(=O)O)NC(=O)[C@H](CC(C)C)NC(=O)CNC(=O)[C@H](CCC(=O)O)NC(=O)[C@@H](N)CCC(=O)O)C(=O)O [compound 713] | 4.73 | 5.35 | 5.23 | 0 | pIC50 [8, 9]: 5.43 |
| < 5.00 | NC(=O)CC[C@H](NC(=O)[C@H](CC(N)=O)NC(=O)[C@H](CO)NC(=O)[C@H](CO)NC(=O)CNC(=O)[C@H](CCC(=O)O)NC(=O)[C@@H](N)CC(=O)O)C(=O)N[C@@H](CCC(=O)O)C(=O)N[C@@H](CCC(=O)O)C(=O)N[C@@H](CCC(=O)O)C(=O)NCC(=O)O [compound 714] | < 5.00 | 5.67 | < 5.00 | 0 | pIC50 [7, 9]: 4.97; pIC50 [8, 9]: < 5.00 |

| Structure (SMILES) | pIC50 [2, 9] | pIC50 [1, 9] | pIC50 [3, 9] | pIC50 [4, 10] | Degeneracy [5, 9] | other results |
| --- | --- | --- | --- | --- | --- | --- |
| CSCC[C@H](NC(=O)[C@H](CCCNC(=N)N)NC(=O)[C@@H]1CCCN1C(=O)CNC(=O)[C@H](CCC(=O)O)NC(=O)[C@H](CCC(=O)O)NC(=O)[C@H](CCC(=O)O)NC(=O)[C@@H](N)CCC(N)=O)C(=O)N[C@@H](Cc1ccccc1)C(=O)O | 6.63 | 5.11 | 6.39 | 5.66 | 3 | – |
| CC[C@H](C)[C@H](N)C(=O)N[C@@H](CCC(=O)O)C(=O)NCC(=O)N[C@@H](CC(=O)O)C(=O)N[C@@H](CS)C(=O)N[C@@H](C)C(=O)N1CCC[C@H]1C(=O)N[C@@H](CCC(=O)O)C(=O)N[C@@H](CCC(=O)O)C(=O)N[C@@H](CCCCN)C(=O)N[C@H](C(=O)O)[C@@H](C)CC [compound 700] | 5.58 | < 5.00 | 6.31 | 6.74 | 2 | pIC50 [7, 9]: 6.07; pIC50 [8, 9]: < 5.00 |
| CC[C@H](C)[C@H](NC(=O)[C@H](Cc1c[nH]cn1)NC(=O)[C@@H]1CCCN1C(=O)[C@H](CCC(=O)O)NC(=O)CN)C(=O)N[C@@H](CO)C(=O)N[C@@H](Cc1ccc(O)cc1)C(=O)O [compound 711] | < 5.00 | 5.17 | 6.57 | < 5.00 | 1 | pIC50 [7, 9]: 5.05 |

pIC50: −log10 of the molar value. Like-named read-outs stand apart in the source and are kept apart here.
